Experimental findings from US6303751A, “Human metabotropic glutamate receptor and related DNA compounds” (Eli Lilly and Company, priority 1995, dated 2001) are described below.

Protein sequences, listed by entry. Tags and fused reporters are not part of them. Residues count along the entry.
UniProt Q13255, 19-1194 S593P/S993P: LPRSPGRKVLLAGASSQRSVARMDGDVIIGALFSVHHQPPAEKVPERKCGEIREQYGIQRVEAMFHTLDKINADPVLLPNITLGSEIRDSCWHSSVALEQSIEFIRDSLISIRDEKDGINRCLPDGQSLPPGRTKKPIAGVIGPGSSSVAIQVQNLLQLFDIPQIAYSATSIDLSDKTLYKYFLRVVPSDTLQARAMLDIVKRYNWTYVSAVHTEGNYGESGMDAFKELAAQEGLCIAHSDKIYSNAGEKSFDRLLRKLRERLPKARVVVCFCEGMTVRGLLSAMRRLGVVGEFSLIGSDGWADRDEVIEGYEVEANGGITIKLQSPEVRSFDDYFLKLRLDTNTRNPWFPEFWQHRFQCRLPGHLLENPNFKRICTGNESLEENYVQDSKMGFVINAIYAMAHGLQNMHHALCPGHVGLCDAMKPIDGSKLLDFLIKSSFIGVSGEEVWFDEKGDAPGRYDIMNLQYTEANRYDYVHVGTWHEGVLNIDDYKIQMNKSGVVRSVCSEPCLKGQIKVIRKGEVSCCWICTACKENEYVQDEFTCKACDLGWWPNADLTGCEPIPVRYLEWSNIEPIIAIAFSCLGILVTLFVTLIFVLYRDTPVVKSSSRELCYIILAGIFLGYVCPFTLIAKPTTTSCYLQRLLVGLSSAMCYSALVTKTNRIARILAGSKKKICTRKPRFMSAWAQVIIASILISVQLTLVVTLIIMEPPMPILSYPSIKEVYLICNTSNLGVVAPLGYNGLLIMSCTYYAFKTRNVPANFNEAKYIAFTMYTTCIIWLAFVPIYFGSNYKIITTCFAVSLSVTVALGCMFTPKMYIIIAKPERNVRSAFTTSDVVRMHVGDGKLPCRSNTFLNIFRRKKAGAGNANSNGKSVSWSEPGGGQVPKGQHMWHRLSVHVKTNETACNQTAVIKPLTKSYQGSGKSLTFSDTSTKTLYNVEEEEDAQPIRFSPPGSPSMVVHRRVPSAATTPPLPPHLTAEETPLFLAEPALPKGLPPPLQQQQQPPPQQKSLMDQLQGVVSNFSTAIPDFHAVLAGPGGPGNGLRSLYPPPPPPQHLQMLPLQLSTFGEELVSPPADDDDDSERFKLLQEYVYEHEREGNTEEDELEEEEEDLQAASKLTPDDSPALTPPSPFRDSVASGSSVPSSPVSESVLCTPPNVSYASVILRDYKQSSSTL

The experiment has as its target T1, HSmGluR1 receptor (human metabotropic glutamate receptor) expressed in Xenopus oocytes (Homo sapiens, UniProt Q13255).
T1 construct: RNA transcripts encoding the HSmGluR1 receptor were produced by enzymatic transcription from pRS117; expressed in transfected cells; host or cells: Xenopus laevis oocytes injected with in vitro transcribed RNA from pRS117
In words: Electrophysiological recording of HSmGluR1 receptor expressed in Xenopus oocytes. Type of experiment: cell-based.

As a reminder, the pEC50 is the EC50 on a negative log10 scale, so that one unit is a factor of ten. Low values mean a large EC50, high ones a small EC50.

pEC50: −log10 of the molar value.

As for `N[C@@]1(C(=O)O)CC[C@@H](C(=O)O)C1` (relative stereo) [trans-ACPD, trans-1-amino-1,3-cyclopentane dicarboxylic acid], the pEC50 is 4.19.
